Legend:
[1] = cited from earlier work
From the text: During the permeation through the nasal mucosa, drugs come across microvascular vessels in the lamina propria directed toward the systemic circulation before reaching the brain or cerebrospinal fluid (CSF).

[2] = mice, anti-insulin staining, n = 3 or 4
[3] = intranasal insulin 10 IU/kg with L-penetratin 2.0 mM, 30 min

In the case of insulin, the “delivery to the brain by intranasal coadministration with L-penetratin” value [1] is listed as “significantly increased”, the “insulin distribution at bregma 0.85 mm (bottom part of the brain)” value [2, 3] is listed as “insulin-derived intensive fluorescence at the bottom part of the brain” and the “insulin distribution at bregma 4.25 mm (olfactory bulb)” value [2, 3] is listed as “most of the bright fluorescence derived from insulin came from the surface of the olfactory bulb”. For the same substance, the “insulin distribution at bregma −1.91 mm (hippocampus)” value [2, 3] was “could reach the deeper part of the brain, around the hippocampus”, the “insulin distribution at bregma 0.85 mm (central part, blood vessels)” value ([2]; intranasal insulin 10 IU/kg with L-penetratin 2.0 mM, 30 min, tomato lectin for vessels) was “presence of insulin at the perivascular spaces of arterial blood vessels” and the “detailed insulin localization in the hippocampus” value ([2]; intranasal insulin with L-penetratin, bregma −1.91 mm) was “specifically accumulate on the pyramidal cells of the hippocampus and the granular cells of the dentate gyrus”.
